The record followed here is ChEMBL document CHEMBL1150266, “Design and synthesis of conformationally constrained glucagon-like peptide-1 derivatives with increased plasma stability and prolonged in vivo activity” (J Med Chem, 2008).

Chains of the proteins cited; added tags and fusions are not shown.
UniProt P43220, whole entry: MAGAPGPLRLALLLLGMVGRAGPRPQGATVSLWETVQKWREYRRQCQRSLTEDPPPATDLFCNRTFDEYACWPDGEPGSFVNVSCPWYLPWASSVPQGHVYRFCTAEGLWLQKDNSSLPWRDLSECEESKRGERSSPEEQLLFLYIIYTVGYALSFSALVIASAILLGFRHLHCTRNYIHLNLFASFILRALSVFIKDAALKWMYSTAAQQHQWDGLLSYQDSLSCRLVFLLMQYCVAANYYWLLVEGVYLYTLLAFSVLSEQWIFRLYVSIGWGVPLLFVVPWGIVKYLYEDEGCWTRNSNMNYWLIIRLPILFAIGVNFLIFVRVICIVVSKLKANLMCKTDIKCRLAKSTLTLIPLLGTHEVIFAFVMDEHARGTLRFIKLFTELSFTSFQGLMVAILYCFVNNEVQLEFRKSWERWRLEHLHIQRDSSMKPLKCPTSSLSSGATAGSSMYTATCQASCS

The target in data set [1] is T1, Glucagon-like peptide 1 receptor (Homo sapiens, UniProt P43220). Nature of the data set: Displacement of [125I]GLP1 from human GLP1R expressed in CHOK1 cells. The format is cell-based, CHO-K1.
Data set [2] deals with T1, Glucagon-like peptide 1 receptor. Nature of the data set: Agonist activity at human GLP1R expressed in CHO cells assessed as increase in cAMP level by cAMP-response element/luciferase activation assay. It counts as functional, cell-based.
In another data set the test system is Plasma. Nature of the data set: Stability in human plasma at 1000 ng/mL at 37 degC. The format is ADME, cell-free.

pEC50, pIC50: −log10 of the molar value.

With `CC[C@H](C)[C@H](NC(=O)[C@H](Cc1ccccc1)NC(=O)[C@@H]1CCCCNC(=O)CC[C@H](NC(=O)CNC(=O)[C@H](CCC(=O)O)NC(=O)[C@H](CC(C)C)NC(=O)[C@H](Cc2ccc(O)cc2)NC(=O)[C@H](CO)NC(=O)[C@H](CO)NC(=O)[C@@H](NC(=O)[C@H](CC(=O)O)NC(=O)[C@H](CO)NC(=O)[C@@H](NC(=O)[C@H](Cc2ccccc2)NC(=O)[C@@H](NC(=O)CNC(=O)[C@H](CCC(=O)O)NC(=O)CNC(=O)[C@@H](N)Cc2c[nH]cn2)[C@@H](C)O)[C@@H](C)O)C(C)C)C(=O)N[C@@H](C)C(=O)N[C@@H](C)C(=O)N[C@@H](CCCCN)C(=O)N1)C(=O)N[C@@H](C)C(=O)N[C@@H](Cc1c[nH]c2ccccc12)C(=O)N[C@@H](CC(C)C)C(=O)N[C@H](C(=O)N[C@@H](CCCCN)C(=O)NCC(=O)N[C@@H](CCCNC(=N)N)C(=O)NCC(N)=O)C(C)C`, the pIC50 in data set [1] was 8.72. The pEC50 in data set [2] is 11.10. Further, the Stability result in the data set with Plasma is “Stable”.

As to `CC[C@H](C)[C@H](NC(=O)[C@@H]1CCCCNC(=O)CC[C@H](NC(=O)[C@H](CCC(N)=O)NC(=O)CNC(=O)[C@H](CCC(=O)O)NC(=O)[C@H](CC(C)C)NC(=O)[C@H](Cc2ccc(O)cc2)NC(=O)[C@H](CO)NC(=O)[C@H](CO)NC(=O)[C@@H](NC(=O)[C@H](CC(=O)O)NC(=O)[C@H](CO)NC(=O)[C@@H](NC(=O)[C@H](Cc2ccccc2)NC(=O)[C@@H](NC(=O)CNC(=O)[C@H](CCC(=O)O)NC(=O)CNC(=O)[C@@H](N)Cc2c[nH]cn2)[C@@H](C)O)[C@@H](C)O)C(C)C)C(=O)N[C@@H](C)C(=O)N[C@@H](CCCCN)C(=O)N[C@@H](CCC(=O)O)C(=O)N1)C(=O)N[C@@H](C)C(=O)N[C@@H](Cc1c[nH]c2ccccc12)C(=O)N[C@@H](CC(C)C)C(=O)N[C@H](C(=O)N[C@@H](CCCCN)C(=O)NCC(=O)N[C@@H](CCCNC(=N)N)C(=O)NCC(N)=O)C(C)C`, in data set [1], the negative-log IC50 (pIC50) was 6.54. Further, the pEC50 in data set [2] was 9.13.

The molecule `CC[C@H](C)[C@H](NC(=O)[C@H](Cc1ccccc1)NC(=O)[C@H](CCC(=O)O)NC(=O)[C@H](CCCCN)NC(=O)[C@H](C)NC(=O)[C@@H]1CCCCNC(=O)CC[C@H](NC(=O)[C@H](Cc2ccc(O)cc2)NC(=O)[C@H](CO)NC(=O)[C@H](CO)NC(=O)[C@@H](NC(=O)[C@H](CC(=O)O)NC(=O)[C@H](CO)NC(=O)[C@@H](NC(=O)[C@H](Cc2ccccc2)NC(=O)[C@@H](NC(=O)CNC(=O)[C@H](CCC(=O)O)NC(=O)CNC(=O)[C@@H](N)Cc2c[nH]cn2)[C@@H](C)O)[C@@H](C)O)C(C)C)C(=O)N[C@@H](CCC(=O)O)C(=O)NCC(=O)N[C@@H](CCC(N)=O)C(=O)N1)C(=O)N[C@@H](C)C(=O)N[C@@H](Cc1c[nH]c2ccccc12)C(=O)N[C@@H](CC(C)C)C(=O)N[C@H](C(=O)N[C@@H](CCCCN)C(=O)NCC(=O)N[C@@H](CCCNC(=N)N)C(=O)NCC(N)=O)C(C)C` had a pIC50 in data set [1] of 7.59. In addition, the pEC50 in data set [2] is 9.35.

In data set [1], `CC[C@H](C)[C@H](NC(=O)[C@H](Cc1ccccc1)NC(=O)[C@H](CCC(=O)O)NC(=O)[C@H](CCCCN)NC(=O)[C@@H]1CCCCNC(=O)CC[C@H](NC(=O)[C@H](CC(C)C)NC(=O)[C@H](Cc2ccc(O)cc2)NC(=O)[C@H](CO)NC(=O)[C@H](CO)NC(=O)[C@@H](NC(=O)[C@H](CC(=O)O)NC(=O)[C@H](CO)NC(=O)[C@@H](NC(=O)[C@H](Cc2ccccc2)NC(=O)[C@@H](NC(=O)CNC(=O)[C@H](CCC(=O)O)NC(=O)CNC(=O)[C@@H](N)Cc2c[nH]cn2)[C@@H](C)O)[C@@H](C)O)C(C)C)C(=O)NCC(=O)N[C@@H](CCC(N)=O)C(=O)N[C@@H](C)C(=O)N1)C(=O)N[C@@H](C)C(=O)N[C@@H](Cc1c[nH]c2ccccc12)C(=O)N[C@@H](CC(C)C)C(=O)N[C@H](C(=O)N[C@@H](CCCCN)C(=O)NCC(=O)N[C@@H](CCCNC(=N)N)C(=O)NCC(N)=O)C(C)C` had a pIC50 of 7.22. For the same molecule, in data set [2], the pEC50 is 9.85.

One may read the pIC50 as the IC50 on a negative log10 scale, so that one unit is a factor of ten. The low end stands for a large IC50, the high end for a small IC50. The pEC50 is the EC50 on a negative log10 scale, so that one unit is a factor of ten.
